# Yeast mating assay 1: variants of the scFv Ab-14

All variants were tested on one target, the spike HR2 peptide PDVDLGDISGINAS (SARS-CoV-2).

Parent: Ab-14, a human scFv built as VH, the linker GGGGSGGGGSGGGGS, VL. Only the CDRs of the light chain vary.
VH: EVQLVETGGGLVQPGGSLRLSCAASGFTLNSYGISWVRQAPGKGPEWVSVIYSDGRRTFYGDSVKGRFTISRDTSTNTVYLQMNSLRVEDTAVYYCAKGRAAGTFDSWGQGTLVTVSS
VL: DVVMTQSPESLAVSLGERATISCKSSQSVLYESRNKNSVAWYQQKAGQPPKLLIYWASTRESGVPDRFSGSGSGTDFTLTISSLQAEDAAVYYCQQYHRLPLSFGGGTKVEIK

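Phage display of a naive human antibody library on the peptide gave the parent. In library AAYL50, one, two or three CDR residues were substituted; doubles and triples were drawn at random. In AlphaSeq, yeast of one mating type display the scFv and yeast of the other type display the target. Binding brings cells together so that they mate, and sequencing counts the barcode pairs among the diploids. The ratio of observed to expected reads was calibrated, replicate by replicate, on BCL2-family standards whose Kd was known from biolayer interferometry. The assay was run in three technical replicates.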

Variants are written as CDR1, CDR2 and CDR3 of the light chain (limits as in the source). Parent: KSSQSVLYESRNKNSVA, WASTRES, QQYHRLPLS.
The read-out is the apparent dissociation constant on a log10 scale (nM): the lower, the stronger.
Averages over replicates are reported, and they cover detected replicates only.
An entry "not detected" has no value in the source: the pair was not observed among the diploids in any replicate. This suggests poor binding but is not conclusive.

{"CDR-L1": "KSSQPVLYESRNKNSVA", "CDR-L2": "WASTRES", "CDR-L3": "QIYHRLPLQ", "log10 Kd (nM), mean": "1.69", "replicates with signal": "3 of 3"}
{"CDR-L1": "KSSQSTLYESRNKNSVA", "CDR-L2": "WSSTRES", "CDR-L3": "QQYHRLPLK", "log10 Kd (nM), mean": "1.66", "replicates with signal": "3 of 3"}
{"CDR-L1": "KSSQSVLYESRNKNSVA", "CDR-L2": "TASTRES", "CDR-L3": "PQYHRLPIS", "log10 Kd (nM), mean": "1.30", "replicates with signal": "3 of 3"}
{"CDR-L1": "KSSHSVLYESRNKNSVA", "CDR-L2": "WASTDES", "CDR-L3": "QQHHRLPLS", "log10 Kd (nM), mean": "not detected", "replicates with signal": "0 of 3"}
{"CDR-L1": "KSSQSVLYESRNKNIVA", "CDR-L2": "WAIERES", "CDR-L3": "QQYHRLPLS", "log10 Kd (nM), mean": "4.50", "replicates with signal": "1 of 3"}
{"CDR-L1": "KSSQSDLYEQRNKNSVA", "CDR-L2": "WASTRES", "CDR-L3": "WQYHRLPLS", "log10 Kd (nM), mean": "2.05", "replicates with signal": "3 of 3"}
{"CDR-L1": "KSSQSVLYESRGKNSRA", "CDR-L2": "WAFTRES", "CDR-L3": "QQYHRLPLS", "log10 Kd (nM), mean": "3.87", "replicates with signal": "1 of 3"}
{"CDR-L1": "KNSQSVLYESRNKNSVA", "CDR-L2": "WASTRES", "CDR-L3": "QQSHRLPLS", "log10 Kd (nM), mean": "not detected", "replicates with signal": "0 of 3"}
{"CDR-L1": "KSSQMMLYERRNKNSVA", "CDR-L2": "WASTRES", "CDR-L3": "QQYHRLPLS", "log10 Kd (nM), mean": "1.88", "replicates with signal": "3 of 3"}
{"CDR-L1": "MSKQSVLYESRNKNSVA", "CDR-L2": "WASTRES", "CDR-L3": "QQYERLPLS", "log10 Kd (nM), mean": "3.33", "replicates with signal": "3 of 3"}
{"CDR-L1": "KSCQSVLYESRNKNSVA", "CDR-L2": "WASTRES", "CDR-L3": "QQYSRLPTS", "log10 Kd (nM), mean": "not detected", "replicates with signal": "0 of 3"}
{"CDR-L1": "KESQSVLYESRNKNSTA", "CDR-L2": "WASTRES", "CDR-L3": "QQYHRLVLS", "log10 Kd (nM), mean": "not detected", "replicates with signal": "0 of 3"}
{"CDR-L1": "KSSQSVLYGSRNKNSVA", "CDR-L2": "WASTRES", "CDR-L3": "QQYHREPMS", "log10 Kd (nM), mean": "2.61", "replicates with signal": "3 of 3"}
{"CDR-L1": "KSSQSVLMESRNDFSVA", "CDR-L2": "WASTRES", "CDR-L3": "QQYHRLPLS", "log10 Kd (nM), mean": "0.57", "replicates with signal": "3 of 3"}
{"CDR-L1": "KSSQYVLYESRNRNSVA", "CDR-L2": "WASTRES", "CDR-L3": "QQYHRLSLS", "log10 Kd (nM), mean": "4.71", "replicates with signal": "2 of 3"}
{"CDR-L1": "KSSQSVLYESRNKNSVA", "CDR-L2": "WASTRES", "CDR-L3": "PQYWKLPLS", "log10 Kd (nM), mean": "0.47", "replicates with signal": "3 of 3"}
{"CDR-L1": "KSTQMRLYESRNKNSVA", "CDR-L2": "WASTRES", "CDR-L3": "QQYHRLPLS", "log10 Kd (nM), mean": "1.36", "replicates with signal": "3 of 3"}
{"CDR-L1": "KSSQSNLYHSRNKNSVA", "CDR-L2": "WASTRES", "CDR-L3": "QHYHRLPLS", "log10 Kd (nM), mean": "3.33", "replicates with signal": "3 of 3"}
{"CDR-L1": "KSSQSVLYESRNKGSVS", "CDR-L2": "WAYTRES", "CDR-L3": "QQYHRLPLS", "log10 Kd (nM), mean": "3.71", "replicates with signal": "2 of 3"}
{"CDR-L1": "KSSQSVLYEYRNKNSVA", "CDR-L2": "WASTRES", "CDR-L3": "QQHHRLPPS", "log10 Kd (nM), mean": "4.88", "replicates with signal": "1 of 3"}
{"CDR-L1": "KSSQSVAYESRNKNSVA", "CDR-L2": "WAVTRES", "CDR-L3": "QQYHRIPLS", "log10 Kd (nM), mean": "1.72", "replicates with signal": "3 of 3"}

3 of these entries, quoted again:

{"CDR-L1": "MSKQSVLYESRNKNSVA", "CDR-L2": "WASTRES", "CDR-L3": "QQYERLPLS", "log10 Kd (nM), mean": "3.33", "replicates with signal": "3 of 3"}
{"CDR-L1": "KESQSVLYESRNKNSTA", "CDR-L2": "WASTRES", "CDR-L3": "QQYHRLVLS", "log10 Kd (nM), mean": "not detected", "replicates with signal": "0 of 3"}
{"CDR-L1": "KSSQSVLYGSRNKNSVA", "CDR-L2": "WASTRES", "CDR-L3": "QQYHREPMS", "log10 Kd (nM), mean": "2.61", "replicates with signal": "3 of 3"}

For reference, the parent read 0.65 as the reference entry and 1.68 as a member of this library.
Empty control strains, which show no peptide, gave a signal in 18% of pairings with library AAYL50; the median was 4.19 and 95% of these signals were weaker than 2.99. No background was subtracted.

Values reported by Engelhart et al. 2022, doi:10.1038/s41597-022-01779-4 (FLAb copy).